Tested on: NE and 5-HT contents in the rat cerebral cortex
Assay: HPLC-electrochemical test of NE and 5-HT contents in the rat cerebral cortex, unpredictable long-term stimulus model (Experiment 8)
Type: in vivo
Details: 2 mg/kg/d into the stomach, 24 days
Description: Unpredictable long-term stimulus model: Health Wistar male rats, secondary, 240˜270 g of body weight, are purchased from Beijing Vital River Experimental Animal Technology Ltd. Co. (The quality certificate number: SOCK (JING) 2002-2003). 8.2 Reagents and pharmaceuticals: The pharmaceutical of Embodiment 4 is provided by Beijing Wonner Biotech Ltd. Co. (Lot: 060313), and Paroxetine is the product of Zhong Mei Tianjin Smith Kline pharmaceuticals Co. Ltd. (Lot: 04050011). The above pharmaceuticals are prepared with 0.5% of sodium carboxymethylcellulose (CMC-Na) for feeding into the stomach. […] 8.5.6 HPLC-electrochemical test: The amounts of norepinephrine and 5-hydrotryptamine in the rat cerebral cortex are measured. 8.6 Statistic calculation: The experimental data are represented as […], and the experimental result is calculated as ANOVA by SPSS 11.5 statistic software.

Structure (SMILES): Fc1ccc([C@@H]2CCNC[C@H]2COc2ccc3c(c2)OCO3)cc1 [Paroxetine]
- 5-HT: 227.0637 ± 46.54 nmol/L brain tissue extract

— patent publication US20100311674A1, “PHARMACEUTICAL COMPOSITIONS WITH A MECHANISM OF MULTI-TARGET RECEPTOR RETROACTION FOR TREATING DEPRESSION” (Yu-Fen Chi, priority 2007, published 2010)
